Test results published in ChEMBL document CHEMBL4842369, “Synthesis, structure-activity relationship and antiviral activity of indole-containing inhibitors of Flavivirus NS2B-NS3 protease” (Eur J Med Chem, 2021).
Active and inactive are the calls of the source. No cut-off for these calls is given here.

Target: Nonstructural protein 3 (Zika virus) (UniProt A0A024AXB9)
Test: Competitive inhibition of Zika virus recombinant NS2B (47 to 95 residues)/NS3 (1 to 177 residues) protease expressed in Escherichia coli BL21 using increased concentration of Bz-Nle-Lys-Lys-Arg-AMC substrate

O=C(NCC1CCNCC1)c1cc2ccc(-c3ccoc3)cc2[nH]1
Activity: inactive
